The values below come from ChEMBL document CHEMBL5532641, “MNK, mTOR or eIF4E-selecting the best anti-tumor target for blocking translation initiation” (Eur J Med Chem, 2023).

Chains of the proteins cited; added tags and fusions are not shown. Lines headed by an entry give the natural chain unless they say otherwise; changes in a name come on top.
UniProt P48736: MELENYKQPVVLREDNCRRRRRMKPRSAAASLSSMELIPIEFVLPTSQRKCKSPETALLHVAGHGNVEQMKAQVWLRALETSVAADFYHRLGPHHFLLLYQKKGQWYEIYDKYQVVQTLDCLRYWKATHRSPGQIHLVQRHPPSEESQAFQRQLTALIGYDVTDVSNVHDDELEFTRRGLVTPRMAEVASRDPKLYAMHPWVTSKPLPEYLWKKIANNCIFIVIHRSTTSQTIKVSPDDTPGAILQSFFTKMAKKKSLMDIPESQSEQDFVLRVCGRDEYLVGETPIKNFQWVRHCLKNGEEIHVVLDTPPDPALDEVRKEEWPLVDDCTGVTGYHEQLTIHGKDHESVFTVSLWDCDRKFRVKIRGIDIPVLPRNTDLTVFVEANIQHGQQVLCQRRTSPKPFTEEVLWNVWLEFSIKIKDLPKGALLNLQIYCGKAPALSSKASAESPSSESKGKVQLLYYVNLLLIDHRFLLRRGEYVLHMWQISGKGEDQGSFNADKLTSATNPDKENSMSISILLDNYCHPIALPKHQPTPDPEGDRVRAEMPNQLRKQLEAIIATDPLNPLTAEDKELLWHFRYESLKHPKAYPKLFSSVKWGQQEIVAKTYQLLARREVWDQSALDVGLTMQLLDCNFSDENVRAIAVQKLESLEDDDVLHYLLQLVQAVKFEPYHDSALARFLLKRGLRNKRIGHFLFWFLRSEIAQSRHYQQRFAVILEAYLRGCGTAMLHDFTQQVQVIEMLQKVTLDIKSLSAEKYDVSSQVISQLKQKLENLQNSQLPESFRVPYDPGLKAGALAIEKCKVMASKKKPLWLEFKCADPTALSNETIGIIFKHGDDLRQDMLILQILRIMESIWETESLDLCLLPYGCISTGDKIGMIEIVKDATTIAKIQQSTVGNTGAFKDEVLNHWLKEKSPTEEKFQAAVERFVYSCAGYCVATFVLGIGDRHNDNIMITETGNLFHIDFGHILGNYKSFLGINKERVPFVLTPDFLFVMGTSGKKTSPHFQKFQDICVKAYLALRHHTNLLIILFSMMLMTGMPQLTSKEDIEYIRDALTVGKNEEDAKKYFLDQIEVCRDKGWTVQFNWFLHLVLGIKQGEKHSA

The assay concerns the target Phosphatidylinositol 4,5-bisphosphate 3-kinase catalytic subunit gamma isoform (Homo sapiens, UniProt P48736).

Regarding `CC(C)n1nc(-c2ccc3oc(N)nc3c2)c2c(N)ncnc21` [SAPANISERTIB], the Ki was determined as 165 nM.

The Ki is a measure of affinity in units of concentration, obtained from inhibition or displacement. Low values mean higher affinity, high ones lower affinity.
